System: zebrafish cell lines vs zebrafish embryo
Assay: Potency ratios IC50;x/EC50;x (cytotoxicity assays vs mFET)
Conditions: median over cytotoxicity endpoints, nominal, 48 h cells / 48 hpf mFET

## CCCSc1ccc2nc(NC(=O)OC)[nH]c2c1 [Albendazole, albendazole]
  potency ratio IC50;nom/EC50;nom (median): 17.0

Reference: PMC7872314, “Modeling Bioavailable Concentrations in Zebrafish Cell Lines and Embryos Increases the Correlation of Toxicity Potencies across Test Systems” (Environmental Science & Technology, 2020)
